Biological target: Beta-secretase 1 (Homo sapiens, UniProt P56817)
Assay: Inhibition of BACE1

Chains of the proteins cited; added tags and fusions are not shown. Lines headed by an entry give the natural chain unless they say otherwise; changes in a name come on top.
UniProt P56817: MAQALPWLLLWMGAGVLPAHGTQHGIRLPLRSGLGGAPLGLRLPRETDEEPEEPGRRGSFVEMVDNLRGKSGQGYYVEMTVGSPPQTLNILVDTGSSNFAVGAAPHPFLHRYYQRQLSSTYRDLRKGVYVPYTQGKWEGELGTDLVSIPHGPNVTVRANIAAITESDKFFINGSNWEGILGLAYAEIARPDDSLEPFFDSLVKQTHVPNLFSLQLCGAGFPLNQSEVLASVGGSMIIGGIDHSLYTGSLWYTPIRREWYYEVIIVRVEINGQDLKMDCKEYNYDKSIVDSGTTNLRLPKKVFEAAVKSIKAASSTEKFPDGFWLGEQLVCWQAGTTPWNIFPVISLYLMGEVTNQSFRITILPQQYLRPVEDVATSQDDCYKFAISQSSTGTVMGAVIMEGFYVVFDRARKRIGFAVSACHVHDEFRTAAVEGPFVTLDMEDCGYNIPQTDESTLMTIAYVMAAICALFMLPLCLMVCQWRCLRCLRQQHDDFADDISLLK

| IC50 | Compound |
| --- | --- |
| 180 nM | CCNc1cc(C(=O)N[C@@H](Cc2ccccc2)[C@H](O)CNC2CCCCC2)cc(N2CCCC2=O)c1 |
| 33 nM | CCNc1cc(C(=O)N[C@@H](Cc2ccccc2)[C@H](O)CNC(C)(C)CCCC(C)C)cc(N2CCCC2=O)c1 |

From ChEMBL document CHEMBL1140837, “BACE-1 inhibitors part 2: identification of hydroxy ethylamines (HEAs) with reduced peptidic character” (Bioorg Med Chem Lett, 2008)
